The results in this text go back to IntAct's records for PubMed 17632056.

The chains are these.
B1: Myc proto-oncogene protein (Homo sapiens), P01106 (parent)
chain: MDFFRVVENQQPPATMPLNVSFTNRNYDLDYDSVQPYFYCDEEENFYQQQQQSELQPPAPSEDIWKKFELLPTPPLSPSRRSGLCSPSYVAVTPFSLRGDNDGGGGSFSTADQLEMVTELLGGDMVNQSFICDPDDETFIKNIIIQDCMWSGFSAAAKLVSEKLASYQAARKDSGSPNPARGHSVCSTSSLYLQDLSAAASECIDPSVVFPYPLNDSSSPKSCASQDSSAFSPSSDSLLSSTESSPQGSPEPLVLHEETPPTTSSDSEEEQEDEEEIDVVSVEKRQAPGKRSESGSPSAGGHSKPPHSPLVLKRCHVSTHQHNYAAPPSTRKDYPAAKRVKLDSVRVLRQISNNRKCTSPRSSDTEENVKRRTHNVLERQRRNELKRSFFALRDQIPELENNEKAPKVVILKKATAYILSVQAEEQKLISEEDLLRKRREQLKHKLEQLRNSCA

This test covers variants of B1. To be noted: with cip2a_human CIP2A.
Take S77D: the “effect of a mutation on the interaction” value was “decreasing interaction”.
With S77A, the “effect of a mutation on the interaction” value is on record as “decreasing interaction”.
